The text below walks through data of patent US20260048138A1, “NOVEL PI3K AND/OR PIKK INHIBITORS, ANTIBODY-DRUG CONJUGATES COMPRISING THE SAME AND USES THEREOF” (HUTCHMED LIMITED, priority 2024, published 2026).

The subject of the assay is MDA-MB-436 cell line. The assay can be described thus: Inhibition of cell proliferation by ADC products in vitro. The settings on record: 6 days, read-out: IC50, nM MDA-MB-436 cell line (FRα−). The format is cell-based. The procedure:
HCC1954 cells (HER2 positive, purchased from the cell bank of ATCC, Cat. No. CRL-2338) were normally cultured in a RPMI-1640 medium (Gibco, Cat. No. A1049101) with 1000 fetal bovine serum (FBS) (Gibco, Cat. No. A5669701) in a cell culture incubator at 37° C. and 500 CO2; and MDA-MB-468 cells (HER2 negative, purchased from Cell Resource Center, Shanghai Academy of Biological Sciences, Chinese Academy of Sciences) were both normally cultured in a DMEM medium with 10% fetal bovine serum (FBS) in a cell culture incubator at 37° C. and 5% CO2. The cells were added to a 96-well plate at 1.0×10^3 cells/well and 100 μL/well and incubated in a cell culture incubator at 37° C. and 500 CO2. […]
The OD450 optical density values were read on an EnVision™ multi-function microplate reader (PerkinElmer), and the inhibition rates (%) of the test antibody-conjugated drugs were calculated. […]
After 6 days of treatment with the antibody-conjugated drugs to be tested, 50 μL/well of CellTiter-Glo® reagent (Promega, Cat. No. G9243) was added to the wells, mixed thoroughly with shaking and incubated for 10 minutes. Chemiluminescence values were read on an EnVision™ multi-function microplate reader (PerkinElmer). […]

B1: ADC-33 (conjugate)
heavy: QVQLVQSGAEVVKPGASVKISCKASGYTFTGYFMNWVKQSPGQSLEWIGRIHPYDGDTFYNQKFQGKATLTVDKSSNTAHMELLSLTSEDFAVYYCTRYDGSRAMDYWGQGTTVTVSSASTKGPSVFPLAPSSKSTSGGTAALGCLVKDYFPEPVTVSWNSGALTSGVHTFPAVLQSSGLYSLSSVVTVPSSSLGTQTYICNVNHKPSNTKVDKKV[human IgG1 Fc not spelt out]
light: DIVLTQSPLSLAVSLGQPAIISCKASQSVSFAGTSLMHWYHQKPGQQPRLLIYRASNLEAGVPDRFSGSGSKTDFTLTISPVEAEDAATYYCQQSREYPYTFGGGTKLEIKRTVAAPSVFIFPPSDEQLKSGTASVVCLLNNFYPREAKVQWKVDNALQSGNSQESVTEQDSKDSTYSLSSTLTLSKADYEKHKVYACEVTHQGLSSPVTKSFNRGEC
Regarding B1, the IC50 (in general, the concentration at which inhibition is half-maximal) came to 16.4 nM.
